Measured melting point values of organic chemicals

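The numbers are reported measurements, compiled and curated for the OPERA QSAR suite. A listed value is a point estimate from one report or more. How each value was measured is not recorded, so precision varies. Where a salt, mixture or single isomer is drawn, the source does not say that exactly this form was tested. Some upstream entries may be estimates or bounds without being marked so.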

The melting point is given in degrees Celsius.
"via" names the databases from which the curators took the value.

The entry for CCCCCCC(O)CCCCCCCCCCC(=O)NCCCCCCNC(=O)CCCCCCCCCCC(O)CCCCCC (configuration not stated) [Octadecanamide, N,N'-1,6-hexanediylbis[12-hydroxy-] lists mp 135.5 °C (via eChemPortal).
The entry for CC(=O)c1ccc(OC(C)C(=O)O)cc1 (configuration not stated) [2-(4-acetylphenoxy)propanoic Acid] lists mp 160 °C (via OCHEM).
The entry for CS(=O)(=O)c1ccc(Cl)c(C(=O)O)c1 [2-chloro-5-(methylsulfonyl)benzoic acid] lists mp 184 °C (via OCHEM).
The entry for COc1cc(N)ccc1NC(C)=O [2-Acetylamino-5-aminoanisole] lists mp 122 °C (via OCHEM).
The entry for Cn1ccnc1C(=O)c1ccccc1Cl [(2-Chlorophenyl)(1-methyl-1H-imidazol-2-yl)methanone] lists mp 100 °C (via OCHEM).
The entry for O=C(O)C1CC(=O)N(C2CCCC2)C1 (configuration not stated) [1-cyclopentyl-5-oxopyrrolidine-3-carboxylic acid] lists mp 137 °C (via OCHEM).
The entry for CN1CCN(CCC(=O)NN)CC1 [3-(4-methylpiperazin-1-yl)propanehydrazide] lists mp 88 °C (via OCHEM).
The entry for O=C(C[NH+](Cc1ccccc1)Cc1ccccc1)c1ccc(O)c(O)c1.[Cl-] lists mp 200.5 °C (via eChemPortal).
The entry for O=C1CCC(C(=O)O)CN1 (configuration not stated) [6-oxopiperidine-3-carboxylic acid] lists mp 175 °C (via OCHEM).
The entry for COc1ccc(S(=O)(=O)c2coc(S(N)(=O)=O)c2)cc1 [4-(4-Methoxybenzene-1-sulfonyl)furan-2-sulfonamide] lists mp 118 °C (via OCHEM).
The entry for Nc1cc(F)c(F)cc1N [1,2-Diamino-4,5-difluorobenzene] lists mp 128 °C (via OCHEM).
The entry for Nc1ccn(-c2ccccc2)n1 [1-Phenyl-1H-pyrazol-3-amine] lists mp 78 °C (via OCHEM).
The entry for C[C@H]1CC[C@@H]2N(C1)C[C@@H]1[C@H]([C@@H](O)[C@H](O)[C@]3(O)[C@H]1C[C@@]14O[C@@]5(O)[C@@H](C[C@@H](O)[C@@H]31)[C@]4(C)CC[C@@H]5O)[C@]2(C)O [Germine] lists mp 220 °C (via OCHEM).
The entry for O=[N+]([O-])c1ccc2[nH]c(=S)oc2c1 [2-Mercapto-6-nitrobenzoxazole] lists mp 193 °C (via OCHEM).
The entry for CC(=O)c1ccc(S(=O)(=O)N2CCOCC2)cc1 [1-[4-(Morpholine-4-sulfonyl)phenyl]ethan-1-one] lists mp 162 °C (via OCHEM).
The entry for CCN(CC)CCC1(c2ccccc2)CCC(=O)NC1=O (configuration not stated) [Phenglutarimide] lists mp 126 °C (via OCHEM).
The entry for N#CCc1cnn(-c2ccccc2)c1 [(1-phenyl-1H-pyrazol-4-yl)acetonitrile] lists mp 39 °C (via OCHEM).
The entry for O=C(O)C1(c2ccccc2)CCOCC1 [4-phenyltetrahydro-2H-pyran-4-carboxylic acid] lists mp 129 °C (via OCHEM).
The entry for CC(C)Oc1ccc(C(=O)NN)cc1 [4-isopropoxybenzohydrazide] lists mp 118 °C (via OCHEM).
The entry for NC[C@H](O)c1ccc(O)c(O)c1 [Norepinephrine] lists mp 181.4 °C (via PubChem).
The entry for O=C(O)Cc1ccc2c(c1)CCC2 [2,3-dihydro-1h-inden-5-ylacetic acid] lists mp 88 °C (via OCHEM).
The entry for O=S1(=O)CCC(S(=O)(=O)Cl)C1 (configuration not stated) [tetrahydrothiophene-3-sulfonyl chloride 1,1-dioxide] lists mp 115 °C (via OCHEM).
The entry for COc1cc2c(c(OC)c1)C(=O)C(=O)N2 [4,6-Dimethoxyindoline-2,3-dione] lists mp 290 °C (via OCHEM).
The entry for CN(C)c1ccc(C2NCC(CCl)O2)cc1 (configuration not stated) [4-[5-(Chloromethyl)-1,3-oxazolidin-2-yl]-N,N-dimethylaniline] lists mp 105 °C (via OCHEM).
The entry for Cc1cc(N(CCO)CCO)ccc1N=Nc1ccc([N+](=O)[O-])cc1 [C.I. Disperse Red 17] lists mp 160 °C (via OCHEM).
The entry for CC(C)c1cc(C(=O)O)c2ccccc2n1 [2-isopropylquinoline-4-carboxylic acid] lists mp 142 °C (via OCHEM).
The entry for O=C(O)c1cc2ccc(OC(F)(F)F)cc2[nH]1 [6-(Trifluoromethoxy)-1H-indole-2-carboxylic acid] lists mp 161 °C (via OCHEM).
The entry for O=C(Nc1ccccn1)C1CCNCC1 [N-(Pyridin-2-yl)piperidine-4-carboxamide] lists mp 114 °C (via OCHEM).
The entry for CC(=O)NC1CC(C)(C)NC(C)(C)C1 [Acetamide, N-(2,2,6,6-tetramethyl-4-piperidinyl)-] lists mp 110.5 °C (via eChemPortal).
The entry for Oc1cn(-c2ccccc2)nn1 [1-phenyl-1H-1,2,3-triazol-4-ol] lists mp 161 °C (via OCHEM).
The entry for N#Cc1ccc(CCC(=O)O)cc1 [3-(4-cyanophenyl)propanoic Acid] lists mp 138 °C (via OCHEM).
The entry for O=S(=O)(Cl)CCc1ccccc1 [2-phenylethanesulfonyl Chloride] lists mp 31 °C (via OCHEM).

4 of these entries, quoted again:

CC(C)Oc1ccc(C(=O)NN)cc1 [4-isopropoxybenzohydrazide] has mp 118 °C (via OCHEM).
Nc1cc(F)c(F)cc1N [1,2-Diamino-4,5-difluorobenzene] has mp 128 °C (via OCHEM).
N#Cc1ccc(CCC(=O)O)cc1 [3-(4-cyanophenyl)propanoic Acid] has mp 138 °C (via OCHEM).
N#CCc1cnn(-c2ccccc2)c1 [(1-phenyl-1H-pyrazol-4-yl)acetonitrile] has mp 39 °C (via OCHEM).

Values as listed in the OPERA 2.9 repository of K. Mansouri.